Assay results as given in US11066396B2 (priority 2016, dated 2021).

The chains behind the UniProt entries cited, without tags or fusion partners. Where a name states a change or a piece, a line headed by the entry shows the natural chain unless it says otherwise.
UniProt Q9BY41: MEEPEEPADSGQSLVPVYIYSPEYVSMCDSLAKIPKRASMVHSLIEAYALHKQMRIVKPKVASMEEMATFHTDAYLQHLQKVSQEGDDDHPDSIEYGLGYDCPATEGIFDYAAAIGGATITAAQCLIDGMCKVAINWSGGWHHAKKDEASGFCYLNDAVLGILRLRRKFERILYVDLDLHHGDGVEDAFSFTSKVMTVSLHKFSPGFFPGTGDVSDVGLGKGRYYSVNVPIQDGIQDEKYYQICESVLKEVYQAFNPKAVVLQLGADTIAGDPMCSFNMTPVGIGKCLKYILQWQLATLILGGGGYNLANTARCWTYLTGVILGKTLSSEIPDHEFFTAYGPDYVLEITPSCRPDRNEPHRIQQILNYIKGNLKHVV
UniProt Q13547, whole entry: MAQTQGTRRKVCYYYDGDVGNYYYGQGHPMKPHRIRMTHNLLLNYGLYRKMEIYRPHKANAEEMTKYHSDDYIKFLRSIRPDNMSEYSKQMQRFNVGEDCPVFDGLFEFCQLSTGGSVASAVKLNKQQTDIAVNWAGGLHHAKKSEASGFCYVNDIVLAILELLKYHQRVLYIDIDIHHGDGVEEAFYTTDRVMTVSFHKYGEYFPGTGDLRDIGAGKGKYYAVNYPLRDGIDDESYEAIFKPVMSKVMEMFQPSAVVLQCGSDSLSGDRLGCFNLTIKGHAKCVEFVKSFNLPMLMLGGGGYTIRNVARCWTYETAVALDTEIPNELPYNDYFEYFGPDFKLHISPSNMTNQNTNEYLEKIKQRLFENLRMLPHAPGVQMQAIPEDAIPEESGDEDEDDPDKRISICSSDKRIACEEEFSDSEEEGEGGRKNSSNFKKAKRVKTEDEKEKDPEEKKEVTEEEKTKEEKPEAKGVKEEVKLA

Columns and labels:
HDAC8 = HDAC8 (Homo sapiens (Human), UniProt Q9BY41); assay: biochemical
HDAC1 [1] = molecular target: T1, HDAC1 (Homo sapiens (Human), UniProt Q13547); assay: biochemical
HDAC1 [2] = molecular target: T1, HDAC1; settings: read-out: HDAC1 IC50

Row | Compound | IC50 (HDAC8) [µM] | IC50 (HDAC1 [1]) [µM] | IC50 (HDAC1 [2]) [µM]
1 | CN1CCN(c2ccc(-c3noc(C(F)(F)F)n3)cn2)C(c2cccc(F)c2)C1=O (racemic) [Example 36, 3-(3-fluorophenyl)-1-methyl-4-(5-(5-(trifluoromethyl)-1,2,4-oxadiazol-3-yl)pyridin-2-yl)piperazin-2-one] | 5.3 | 16 | 
2 | O=C(C(Cc1ccc(-c2noc(C(F)(F)F)n2)cn1)c1cccc(C(F)(F)F)c1)N1CCS(=O)(=O)CC1 (single isomer, unassigned) [Example 171, (R or S)-1-(1,1-Dioxidothiomorpholino)-3-(5-(5-(trifluoromethyl)-1,2,4-oxadiazol-3-yl)pyridin-2-yl)-2-(3-(trifluoromethyl)phenyl)propan-1-one] |  | 5.5 | 
3 | O=C(C(Cc1ccc(-c2noc(C(F)(F)F)n2)cn1)c1cccc(C(F)(F)F)c1)N1CCS(=O)(=O)CC1 (stereo not shown) [Example 169, 1-(1,1-Dioxidothiomorpholino)-3-(5-(5-(trifluoromethyl)-1,2,4-oxadiazol-3-yl)pyridin-2-yl)-2-(3-(trifluoromethyl)phenyl)propan-1-one] |  |  | 5.2

Read-outs that look alike come from different tables or passages of the source.
